Reference: US5776925A, “Methods for cancer chemosensitization” (Pharmacyclics, Inc., priority 1996, dated 1998)

How the values were obtained:
MES-SA cells [1] = test: chemosensitization effect in non-MDR cell line; format: cell-based, human; conditions: agent in the presence of GdT2BET; wild-type MES-SA
MES-SA/Dx5 cells = test: chemosensitization effect in doxorubicin-selected mdr1 variant; format: cell-based, human; conditions: agent in the presence of GdT2BET
MES-SA cells [2] = test: modified MTT cytotoxicity assay, chemotherapeutic agent and GdT2BET added together; conditions: agent with GdT2BET 50, 100, 150 μM; summary of Examples 1 and 3-6

SMILES: O=P1(N(CCCl)CCCl)NC(O)CCO1 (stereo not drawn)
- effectiveness in the presence of texaphyrin (MES-SA cells [1]): effective
- effectiveness in the presence of texaphyrin (MES-SA/Dx5 cells): effective
- IC50 difference relative to control / cytotoxicity in the presence of texaphyrin (FIG. 2) (MES-SA cells [2]): enhanced cytotoxicity
